Here are results for two compounds from US5811442A, “Pharmaceutical compositions for the treatment of conditions associated with decreased blood flow” (priority 1997, dated 1998).

Sequences of proteins named here, by UniProt entry; tags and fusion partners are left off. Residues count along the entry.
UniProt P09483, 31-630: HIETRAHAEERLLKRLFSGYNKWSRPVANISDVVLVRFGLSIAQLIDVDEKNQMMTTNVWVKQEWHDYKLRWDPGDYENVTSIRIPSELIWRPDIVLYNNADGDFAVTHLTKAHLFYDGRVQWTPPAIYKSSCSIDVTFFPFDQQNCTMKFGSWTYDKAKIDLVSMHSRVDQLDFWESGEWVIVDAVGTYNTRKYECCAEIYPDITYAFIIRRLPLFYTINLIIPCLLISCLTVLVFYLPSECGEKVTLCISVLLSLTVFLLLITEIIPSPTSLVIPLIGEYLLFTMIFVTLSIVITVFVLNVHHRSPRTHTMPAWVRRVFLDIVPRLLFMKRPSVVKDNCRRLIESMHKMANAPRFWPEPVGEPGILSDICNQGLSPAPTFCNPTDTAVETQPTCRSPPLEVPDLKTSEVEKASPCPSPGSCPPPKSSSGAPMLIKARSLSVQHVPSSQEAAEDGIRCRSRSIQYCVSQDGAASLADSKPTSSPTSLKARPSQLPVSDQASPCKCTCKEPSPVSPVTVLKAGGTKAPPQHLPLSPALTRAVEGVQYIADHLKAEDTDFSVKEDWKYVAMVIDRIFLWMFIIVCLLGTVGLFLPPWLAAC
UniProt P12390, 25-500: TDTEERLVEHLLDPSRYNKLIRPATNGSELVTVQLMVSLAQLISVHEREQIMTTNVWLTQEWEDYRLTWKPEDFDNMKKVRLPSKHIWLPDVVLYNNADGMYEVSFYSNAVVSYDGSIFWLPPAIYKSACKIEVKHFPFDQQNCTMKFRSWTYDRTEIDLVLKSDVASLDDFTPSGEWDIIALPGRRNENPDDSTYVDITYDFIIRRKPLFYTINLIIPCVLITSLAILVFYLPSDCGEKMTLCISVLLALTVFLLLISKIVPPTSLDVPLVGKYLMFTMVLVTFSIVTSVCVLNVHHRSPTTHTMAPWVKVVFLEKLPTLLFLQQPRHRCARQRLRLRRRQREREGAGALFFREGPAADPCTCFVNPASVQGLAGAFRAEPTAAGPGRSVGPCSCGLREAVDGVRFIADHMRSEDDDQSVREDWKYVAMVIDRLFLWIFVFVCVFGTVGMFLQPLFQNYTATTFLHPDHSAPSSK

Where two headings read alike, the source gives them in different places.

The assay concerns the target T1, α4β2 receptor subtypes (Rattus norvegicus, UniProt P09483+P12390).
T1 construct: from tissue
The assay can be described thus: Determination of Binding to Relevant Receptor Sites. The text has this: Receptor binding constants provide a measure of the ability of the compound to bind to relevant receptor sites of certain cells of the patient.
Determination of Binding to Relevant Receptor Sites

For orientation: Ki means the dissociation constant of the complex between target and ligand, obtained from inhibition or displacement. Consider `COc1cncc(/C=C/CCN)c1` [Sample No. 4, (E)-4-[3-(5-methoxypyridin)yl]-3-buten-1-amine monofumarate], for which the Ki (calculated from IC50 values using the method of Cheng et al., read-out: Ki) is 150 nM.

`CNCC/C=C/c1cncnc1` [Sample No. 11, (E)-N-methyl-4-(5-pyrimidinyl)-3-buten-1-amine] came in with a Ki of 85 nM.
